The values that follow are results of earlier work, collected in US9795131B2, “Sophorolactone compositions and uses thereof” (ECOVER CO-ORDINATION CENTER N.V., priority 2011, dated 2017).

The conditions of the series: OK / NOK; cited from earlier work.

In the case of Glycerin formal, the GRAS status result is recorded as “NOK”.
